These are literature values, as cited in patent US8865021B2, “Compositions of lipids and cationic peptides” (Camurus AB, priority 2003, dated 2014).

The labels stand for the following.
B1: IL-3 (protein, UniProt P08700 20-152, looked up)
Interleukin-3: APMTQTTPLKTSWVNCSNMIDEIITHLKQPPLPLLDFNNLNGEDQDILMENNLRRPNLEAFNRAVKSLQNASAIESILKNLLPCLPLATAAPTRHPIHIKDGDWNEFRRKLTFYLKTLENAQAQQTTLSLAIF
notes: Haematopoietic growth factor
B2: IL-20 (protein, UniProt Q9NYY1 25-176, looked up)
Interleukin-20: LKTLNLGSCVIATNLQEIRNGFSEIRGSVQAKDGNIDIRILRRTESLQDTKPANRCCLLRHLLRLYLDRVFKNYQTPDHYTLRKISSLANSFLTIKKDLRLCHAHMTCHCGEEAMKKYSQILSHFEKLEPQAAVVKALGELDILLQWMEETE
notes: Four alpha helix cytokine ZCYTO10

The conditions of this series: Table 2.
Follitropin-alpha: the “Isoelectric pH” value is 8.38 pH. For IL-2, the “Isoelectric pH” value is reported as 7.05 pH. Take Interferon-alpha 2: the “Isoelectric pH” value is 5.99 pH. Take Interferon-beta: the “Isoelectric pH” value is recorded as 8.93 pH.

For Thyrotropin alpha, the “Isoelectric pH” value is 8.38 pH.

Turning to B1, the “Isoelectric pH” value was 6.97 pH. As to B2, the “Isoelectric pH” value is recorded as 8.77 pH.
